EP4014973B1, “INHALED LIQUID FOR THE TREATMENT OF RESPIRATORY INFECTIONS IN HUMANS CAUSED BY PATHOGENS RESISTANT TO ANTIBIOTICS” (Conick Biotech LLC, priority 2020, dated 2022)

Tested on: humans
Assay: Clinical pilot study of side effects after inhalation
Conditions: 80 humans; blood samples before the test, on the 4th and 8th day

C=CCc1ccc(O)c(OC)c1.CCN(CC)CC(=O)Nc1c(C)cccc1C [Novel Compound, N-[N'-(carboxymethylenyl-2,6-dimethyl-aniline)-N,N-diethylammonium]-[2'-methoxy-4'-(2'-propenyl)]-phenolate.]
kidney functions (urine and blood parameters): did not have any negative effects on kidney
